From patent US20240161653A1, “IN VITRO MODEL DEVICE FOR PLACENTAL BARRIER” (CFD Research Corporation, priority 2022, published 2024)

Test system: placental barrier of the in vitro placenta device (coculture of Bewo trophoblasts and HUVEC)
Details: injected into maternal or fetal vascular channel at 0.1 μL/min for 1 hour; PI = ratio of sum ROIs trophoblast to vascular channel; FIG. 9A

4 kD TRITC(tetramethylrhodamine)-dextran [4 kD TRITC-Dextran]
mean maternal permeability index (PI) relative to PI from the fetal vasculature: approximately 2 fold
